# From US20080318861A1, “Mucosal Delivery of Stabilized Formulations of Exendin” (NASTECH PHARMACEUTICAL COMPANY INC., priority 2005, published 2008)
# Test system: normal, human-derived tracheal/bronchial epithelial cells (EpiAirway Tissue Model)
# Experiment: MTT cell viability assay
# Assay type: cell-based
# Conditions: cell viability as measured by LDH and MTT; exenatide formulation containing the named excipient
# Excerpt: The extraction plate was covered and scaled to reduce evaporation of extractant.
substance,measurement,value
dodecanoylsucrose,toxicity / cell viability in excipient screening (in words),toxic at 10 mg/mL
